One test deals with PI3K-δ (p110δ/p85α) (Homo sapiens (Human), UniProt O00329). Nature of the test: Transcreener KINASE Assay, fluorescent determination of PI3K enzyme activity.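 Note: ADP formed by the kinase detected via far-red competitive fluorescence polarization immunoassay after 80 min room-temperature reaction, inhibition relative to 2% DMSO wells.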 The test is classed as biochemical.
In test [1] the test system is AKT phosphorylation (p-AKT Ser473) in Ramos cells. Nature of the test: Inhibition of AKT phosphorylation in Ramos cell line (anti-IgM stimulated). The test is classed as cell-based. As to conditions: Homo sapiens, anti-IgM stimulation.

Amino acid sequences for entries named in this document (tags omitted). A change or cut given only in a name is not applied to a line headed by its entry.
UniProt O00329, whole entry, species assumed: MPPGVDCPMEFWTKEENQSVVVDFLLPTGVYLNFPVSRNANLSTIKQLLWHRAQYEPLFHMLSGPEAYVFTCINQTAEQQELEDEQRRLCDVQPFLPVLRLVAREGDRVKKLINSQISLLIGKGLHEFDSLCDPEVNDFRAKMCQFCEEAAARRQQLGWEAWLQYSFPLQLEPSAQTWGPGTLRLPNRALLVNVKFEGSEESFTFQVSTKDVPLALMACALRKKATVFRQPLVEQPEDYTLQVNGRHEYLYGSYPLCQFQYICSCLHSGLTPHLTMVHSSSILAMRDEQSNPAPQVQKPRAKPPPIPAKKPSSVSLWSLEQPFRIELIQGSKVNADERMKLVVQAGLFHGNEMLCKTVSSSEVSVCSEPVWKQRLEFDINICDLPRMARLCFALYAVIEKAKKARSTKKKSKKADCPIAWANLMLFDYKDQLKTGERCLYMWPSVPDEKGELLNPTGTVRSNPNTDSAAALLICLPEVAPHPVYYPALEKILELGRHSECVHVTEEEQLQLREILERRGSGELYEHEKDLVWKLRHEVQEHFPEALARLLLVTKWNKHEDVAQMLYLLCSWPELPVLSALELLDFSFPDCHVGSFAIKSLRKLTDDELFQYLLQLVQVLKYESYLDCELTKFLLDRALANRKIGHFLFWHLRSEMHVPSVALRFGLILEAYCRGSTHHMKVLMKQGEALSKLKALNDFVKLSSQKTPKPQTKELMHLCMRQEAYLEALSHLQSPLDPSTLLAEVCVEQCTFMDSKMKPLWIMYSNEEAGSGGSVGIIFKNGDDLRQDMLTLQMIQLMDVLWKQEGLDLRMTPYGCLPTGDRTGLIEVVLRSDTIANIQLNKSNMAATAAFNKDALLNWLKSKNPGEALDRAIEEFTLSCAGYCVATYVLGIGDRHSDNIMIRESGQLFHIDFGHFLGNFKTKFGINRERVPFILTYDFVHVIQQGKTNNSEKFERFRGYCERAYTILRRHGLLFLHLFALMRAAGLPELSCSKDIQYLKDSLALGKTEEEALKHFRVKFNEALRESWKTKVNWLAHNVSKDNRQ

The record followed here is patent US10208066B2, “Imidazopyridazine compounds and their use” (HUTCHISON MEDIPHARMA LIMITED, priority 2014, dated 2019).

As usually defined, the IC50 is the midpoint of a concentration-inhibition curve.

Turning to `CC(Nc1ncnc(N)c1C#N)c1cc2ncc(Cl)n2nc1-c1ccccc1` (racemic) [Compound 2, 4-amino-6-((1-(3-chloro-6-phenylimidazo[1,2-b]pyridazin-7-yl)ethyl)amino)pyrimidine-5-carbonitrile], the IC50 (at PI3K-δ (p110δ/p85α); in test [1]) was 1 nM each time.
